Literature values in patent US20170029494A1, “Antigen Binding Constructs” (Glaxo Group Limited, priority 2011, published 2017).

Chains of the proteins cited; added tags and fusions are not shown. Residues count along the entry.
UniProt P35968, 20-1356, species assumed: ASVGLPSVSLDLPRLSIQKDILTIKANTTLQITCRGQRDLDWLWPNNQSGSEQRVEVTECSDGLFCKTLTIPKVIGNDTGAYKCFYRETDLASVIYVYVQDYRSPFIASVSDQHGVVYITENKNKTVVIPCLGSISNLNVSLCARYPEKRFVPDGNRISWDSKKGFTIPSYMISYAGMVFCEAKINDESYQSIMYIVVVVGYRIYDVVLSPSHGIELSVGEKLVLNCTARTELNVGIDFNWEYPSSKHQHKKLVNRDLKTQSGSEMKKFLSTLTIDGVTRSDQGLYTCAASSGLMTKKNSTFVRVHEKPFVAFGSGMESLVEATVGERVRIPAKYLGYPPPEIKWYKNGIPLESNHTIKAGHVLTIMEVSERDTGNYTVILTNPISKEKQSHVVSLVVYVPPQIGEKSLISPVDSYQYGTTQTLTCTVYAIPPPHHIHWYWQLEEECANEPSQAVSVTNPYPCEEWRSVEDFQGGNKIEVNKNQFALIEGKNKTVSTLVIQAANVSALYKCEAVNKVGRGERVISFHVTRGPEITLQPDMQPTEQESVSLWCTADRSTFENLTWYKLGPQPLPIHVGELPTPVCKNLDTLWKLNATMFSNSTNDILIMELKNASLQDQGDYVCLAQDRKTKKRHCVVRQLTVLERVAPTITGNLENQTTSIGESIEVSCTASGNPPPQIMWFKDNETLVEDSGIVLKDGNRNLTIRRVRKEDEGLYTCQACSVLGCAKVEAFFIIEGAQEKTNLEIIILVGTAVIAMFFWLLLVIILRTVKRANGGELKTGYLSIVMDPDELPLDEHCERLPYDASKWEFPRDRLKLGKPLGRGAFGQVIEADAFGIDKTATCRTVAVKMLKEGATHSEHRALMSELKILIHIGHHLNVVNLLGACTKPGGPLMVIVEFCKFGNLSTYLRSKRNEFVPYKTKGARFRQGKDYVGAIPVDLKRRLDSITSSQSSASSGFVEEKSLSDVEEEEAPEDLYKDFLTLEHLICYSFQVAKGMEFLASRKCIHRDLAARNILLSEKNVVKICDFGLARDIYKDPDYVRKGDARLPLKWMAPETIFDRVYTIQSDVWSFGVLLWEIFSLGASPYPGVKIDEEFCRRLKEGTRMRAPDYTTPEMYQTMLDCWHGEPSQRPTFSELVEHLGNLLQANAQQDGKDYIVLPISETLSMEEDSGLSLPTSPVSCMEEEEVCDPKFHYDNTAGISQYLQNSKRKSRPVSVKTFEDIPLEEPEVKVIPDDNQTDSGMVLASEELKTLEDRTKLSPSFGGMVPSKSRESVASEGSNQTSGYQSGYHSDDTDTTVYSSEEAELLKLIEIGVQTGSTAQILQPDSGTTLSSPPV

Molecular target: VEGFR2 (Flk-2; KDR) (Homo sapiens, UniProt P35968)
Conditions: cited from earlier work

For VEGF, the Kd is listed as 0.1 nM.
